Values quoted from earlier work, collected in paper PMC12323307, “Oral delivery of GLP-1 peptide using recombinant Lactobacillus gasseri for the treatment of type 2 diabetes mellitus” (Microbiology Spectrum, 2025).

Description: In prior research, Cheng et al. developed an innovative approach to engineer a precursor peptide for liraglutide, specifically a mutant form of GLP-1 (GLP-1 (7–37)^R34) ([8]). Human serum albumin (HSA), an endogenous molecular transporter, is widely recognized for its favorable properties, including excellent biodegradability, non-toxicity, and non-immunogenicity. With a half-life of approximately 19 days, HSA is frequently utilized as ...

With “HSA: endogenous molecular transporter used as drug carrier” as the substance, how does the half-life read?
Its half-life is “approximately 19 days”.
